# Source: patent US6426222B1, “Method for inducing osteoblast differentiation of human extramedullary adipose tissue cells” (Bio Holdings International Limited, priority 1997, dated 2002)
# How the values were obtained:
# Type in all cases: cell-based
# [1] = tested on: human extramedullary adipose tissue cells; assay: In vitro mineralization of the extracellular matrix (von Kossa stain); details: after 45 days
# [2] = tested on: human extramedullary adipose tissue cells; assay: Examination of the cells under a scanning electron microscope
# [3] = tested on: human extramedullary adipose tissue cells; assay: Type I collagen immunofluorescence on fixed cells; details: 30 days of treatment
# [4] = tested on: human extramedullary adipose tissue cells; assay: Osteocalcine immunofluorescence on fixed cells
# [5] = tested on: human extramedullary adipose tissue cells; assay: Alkaline phosphatase activity of treated cultures (para-nitrophenol phosphate substrate)
# Procedure: Adipose tissue biopsies were taken during plastic surgery of the abdomen on healthy patients, of ages of from 25 to 50.
# The tissues taken were sliced thinly into small fragments and digested for 90 minutes with collagenase (2 mg/ml) in a Krebs Ringer buffer at 37° C. Filtering was performed on a screen having a pore size of 100 μm, the filtrate was recovered, and centrifuged at 1000 revolutions per minute (rpm) for 5 min. The supernatant was removed and the pellet was washed several times in Krebs Ringer buffer. The washing and centrifuging steps were repeated several times and on each occasion the supernatant containing mature adipocytes was removed. The resulting cells were suspended in DME/F12 (Sigma Chemical Co., St. Louis, Mo. USA; reference D-6905) culture medium containing 10% fetal calf serum, 100 μg/ml streptomycin, and 100 U/ml penicillin. […]
# Alkaline phosphatase activity was determined by using para-nitrophenol phosphatase as a substrate, using the technique described by L. Lecoeur and J. P. Ouhayoun, Biomaterials 18, 989-993 (1997). The quantity of para-nitrophenol formed upon hydrolysis of the substrate was determined by measuring the absorbance at 410 nm, which was converted into nanomoles of enzyme using a calibration curve established on the basis of known concentrations of para-nitrophenol.
# [6] = tested on: human extramedullary adipose tissue cells; assay: In situ cytoenzymatic (histochemical) detection of alkaline phosphatase on fixed cell cultures; details: cultures fixed with formol after 30 days of treatment
substance,measurement,setting,value
"rhBMP2: recombinant human BMP2 supplied by Genetic Institute, added at 200 ng/ml",points of mineralization,[1],no points of mineralization would be detected
same,appearance of cells under scanning electron microscope,[2],more elongate in shape
same,reaction with anti-type I collagen antibody (fluorescence),[3],reacted little with that antibody
same,response to anti-osteocalcine antibody (fluorescent marking),[4],responded very weakly
same,alkaline phosphatase activity relative to control cultures,"[5]; in most cases, even after 35 days of incubation",less than or equal to the activity present in the control cultures
same,alkaline phosphatase activity (in words),"[5]; treatment added at confluence, media renewed every 3 days",did not present a strong alkaline phosphatase activity
same,cells with positive alkaline phosphatase activity (cytoenzymatic test),[6],only a small proportion of cells that were positive for alkaline phosphatase
